Laboratory results taken from PubChem BioAssay AID624037 (The Scripps Research Institute Molecular Screening Center, 2012).
The entries are a selection whose mix differs from that of the whole data set. Activity calls are given as the source filed them.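 Rule for the calls: active = activation above the run's mean over test compounds plus 3 SD (cut at about 23% in these data); inactive = the rest.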

Sequences of proteins named here, by UniProt entry; tags and fusion partners are left off.
UniProt P08912, whole entry, looked up: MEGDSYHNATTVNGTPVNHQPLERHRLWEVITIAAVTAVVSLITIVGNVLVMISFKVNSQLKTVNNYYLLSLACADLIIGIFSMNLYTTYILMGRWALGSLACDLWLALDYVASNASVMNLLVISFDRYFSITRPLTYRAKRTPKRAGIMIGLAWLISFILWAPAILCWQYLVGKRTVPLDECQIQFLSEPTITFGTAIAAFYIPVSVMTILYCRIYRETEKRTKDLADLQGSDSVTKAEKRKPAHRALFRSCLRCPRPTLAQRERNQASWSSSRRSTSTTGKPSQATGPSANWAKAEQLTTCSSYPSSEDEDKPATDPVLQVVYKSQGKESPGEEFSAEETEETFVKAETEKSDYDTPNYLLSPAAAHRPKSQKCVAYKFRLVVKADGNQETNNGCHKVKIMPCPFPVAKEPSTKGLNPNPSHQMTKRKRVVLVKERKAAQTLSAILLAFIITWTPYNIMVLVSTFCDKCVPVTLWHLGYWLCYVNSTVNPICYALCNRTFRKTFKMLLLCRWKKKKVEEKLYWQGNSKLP

target: Muscarinic acetylcholine receptor M5 (Homo sapiens) (UniProt P08912); experiment: human M5 muscarinic receptor agonists, primary screen, CHO-K1 cells, Fluo-8 calcium fluorescence (AID 624037); conditions: CHO-K1 hM5 cells, at 3 µM, active compounds read high, 0% DMSO wells, 100% maximal acetylcholine response;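 note: signal is peak over basal fluorescence ratio across the kinetic read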

Structure (SMILES)	activation
CC(C)NC(=O)NP(=O)(Oc1ccccc1)Oc1ccccc1	inactive: -0.7%
O=C(OC1CN2CCC1CC2)c1cccc2[nH]cnc12 (stereo not given)	inactive: -19%
CCN(CC)C(=S)SC(NC=O)C(Cl)(Cl)Cl (stereo not given)	inactive: -4.5%
O=[N+]([O-])c1cc([N+](=O)[O-])c(-c2ccn[nH]2)s1	inactive: -0.98%
COC(=O)C1(C)COP(=O)(N2CCCCCC2)OC1 (stereo not given)	inactive: 1.71%
CC(C)c1ccc(OP(=O)(Nc2ccccn2)Oc2ccccc2F)cc1 (stereo not given)	inactive: 5%
ClCCSc1nnc(-c2cccnc2)o1	inactive: -1.71%
COc1ccc2nc(NP(=O)(c3ccccc3)c3ccccc3)sc2c1	inactive: -2.17%
COc1cc(I)ccc1[As](=O)(O)O	inactive: 0.49%
O=P1(N(CCCl)CCCl)OCCCN1CCCl (stereo not given)	inactive: 4.59%
O=P1(N(CCCl)CCCl)Nc2ccccc2N1	inactive: -3.4%
O=C(OC1CN2CCC1CC2)C12CC3CC(CC(C3)C1)C2 (stereo not given)	inactive: -13.8%
Cc1cc(=O)[nH]c(N[N+](=O)[O-])n1	inactive: 1.25%
Cc1c2c(nc3ccccc13)SC(C(Cl)Cl)C2 (stereo not given)	inactive: -3.55%
COc1ccc(N/C(=N/P(=O)(N2CCOCC2)N2CCOCC2)N2CCOCC2)cc1	inactive: 0.42%
O=[N+]([O-])c1cc(Oc2ccc([N+](=O)[O-])cc2C(F)(F)F)cc([N+](=O)[O-])c1	inactive: 0.64%
Cc1cccc(OCC(=O)OC2CN3CCC2CC3)c1 (stereo not given)	inactive: -10%
O=[As](O)(c1cccc(O)c1)c1cccc(O)c1	inactive: -0.09%
O=[As](O)(O)c1cccnc1	inactive: 0.39%
CS(=O)(=O)c1ccc(Cl)c(NC(=O)COC(=O)C(O)(c2ccccc2)c2ccccc2)c1	inactive: 4.35%
O=C(OC1CN2CCC1CC2)c1ccc(Cl)cc1 (stereo not given)	inactive: -18.8%
COc1cc(C2NCCC3(OCCO3)C2(C)C)cc(OC)c1OC (stereo not given)	inactive: -1.66%

Structure (SMILES)	activation
CCOP(=O)(Nc1cccc2ccccc12)OCC	inactive: -1.98%
C[C@H]1C(=O)O[C@@H]2CCN3CC=C(COC(=O)[C@](C)(O)[C@]1(C)O)[C@H]23	inactive: -0.46%
CCCOP(=S)(Nc1nc(N)cc(=O)[nH]1)OCCC	inactive: -0.63%
Nc1cccc2c([As](=O)(O)O)cccc12	inactive: 0.19%
Cc1ccc(NCCc2c([N+](=O)[O-])cc([N+](=O)[O-])cc2[N+](=O)[O-])cc1	inactive: -2.15%
Nc1ccccc1[As](=O)(O)c1ccccc1	inactive: -3.33%
O=C(O)COc1ccc([As](=O)(O)O)cc1[N+](=O)[O-]	inactive: 0.25%
CS(=O)(=O)c1cc([N+](=O)[O-])c2no[n+]([O-])c2c1	inactive: -3.25%
CCOP1(=S)c2c(C)nn(CCC#N)c2N=C(c2ccccc2F)N1C (stereo not given)	inactive: -0.11%
O=P(Nc1nccs1)(Oc1ccccc1)Oc1ccccc1	inactive: -0.19%
O=P(Nc1nccs1)(c1ccccc1)c1nc2ccccc2s1 (stereo not given)	inactive: 1.25%
O=[N+]([O-])c1ccc2c(c1)nnn2O	inactive: -0.03%
CN(C)C(=O)c1cc([N+](=O)[O-])cc2c1-c1c(cc([N+](=O)[O-])cc1[N+](=O)[O-])C2=O	inactive: 11%
CN(C(=O)Cc1ccc(Cl)c(Cl)c1)[C@H]1CC[C@@]2(CCCO2)C[C@@H]1N1CCCC1	inactive: -0.5%
N#CCCN(C(=O)COC(=O)C(O)(c1ccccc1)c1ccccc1)c1ccc(F)cc1	inactive: 4.41%
CCOP1(=S)c2c(C)nn(CCC#N)c2N=C(c2ccc(F)cc2)N1C (stereo not given)	inactive: -0.12%
CN(C(=O)Cc1ccccc1)[C@@H]1CC[C@]2(CCCO2)C[C@H]1N1CCCC1	inactive: 2.53%
NC(=O)Nc1ccc([As](=O)(O)O)cc1	inactive: 0.06%
O=C(/C=C/c1ccccc1)OC1CN2CCC1CC2 (stereo not given)	inactive: -19.9%
CCCC1OP(=O)(Nc2ccccc2)OCC1CC (stereo not given)	inactive: 2.05%
Cc1nn(-c2ccccc2)c2c1P(=O)(N1CCOCC1)N(C)C(c1ccccc1)=N2 (stereo not given)	inactive: 0.79%
CC1CCC(C(C)C)C(OP(=O)(Nc2ccccn2)c2ccccc2)C1 (stereo not given)	inactive: 5.79%

Structure (SMILES)	activation
Cc1ccc(C(=O)OC2CN3CCC2CC3)cc1 (stereo not given)	inactive: -7.51%
O=[As](O)(c1cccs1)c1cccs1	inactive: -1.94%
Cc1ccc(OCC(=O)OC2CN3CCC2CC3)cc1 (stereo not given)	inactive: -11.8%
O=P1(Nc2ccc(Br)cn2)COc2ccccc2OC1	inactive: 2.17%
NS(=O)(=O)c1cccc(NC(=O)COC(=O)C(O)(c2ccccc2)c2ccccc2)c1	inactive: -2.7%
Nc1cccc([As](=O)(O)c2ccccc2)c1	inactive: 0.85%
O=P1(Nc2ncccn2)COc2ccccc2OC1	inactive: -2.9%
Cc1ccc(S(=O)(=O)N(CCCN)CCCc2c(C)nc(N)[nH]c2=O)cc1	inactive: -3.23%
O=P1(N(CCCl)CCCl)NCCC(C(F)(F)F)O1 (stereo not given)	inactive: 2.15%
Clc1n[nH]nc1-c1nn[nH][15n]1	inactive: -0.54%
CC(C)(C)C(=O)NC(Sc1ncccn1)C(Cl)(Cl)Cl (stereo not given)	inactive: 0.72%
CCOP(=O)(Nc1ccc(C)cn1)OCC	inactive: -1.88%
CN(CCCl)Cc1cc(Cl)c(NC2=NCCN2)c(Cl)c1	inactive: 0.85%
O=P1(Nc2ccccn2)COc2ccccc2OC1	inactive: 3.53%
CCC1=CC2Cc3nc4ccc(Cl)cc4c(N)c3C(C1)C2 (stereo not given)	inactive: -21.9%
CCOP(=O)(NC(=NC(C)c1ccccc1)NC(C)c1ccccc1)OCC (stereo not given)	inactive: -3.67%
CC1(CBr)Cn2c(nc3ccccc3c2=O)S1 (stereo not given)	inactive: -2.67%
CC(C)/C=N\N=C(\N)N[N+](=O)[O-]	inactive: -1.86%
CN(C(=O)Cc1ccc(Cl)c(Cl)c1)[C@@H]1CCCC[C@H]1N1CCCC1	inactive: -1.15%
COc1ccccc1CNC(=O)COC(=O)C(O)(c1ccccc1)c1ccccc1	inactive: -1.05%
c1nnnn1CCn1cnnn1	inactive: -1.44%
